The entries are a selection whose mix differs from that of the whole data set. Inconclusive results are not listed. The source made the active and inactive calls. Unless noted, calls follow the shape of the dose curve; as a rule, active = well fitted curve in the direction sought with a large enough effect; inconclusive = small, poorly fitted or top-dose-only effect, or another doubt; inactive = no such curve, though single readings can be large; an effect the other way counts as inactive or inconclusive.
Legend:
[1] = qHTS Assay for Identifying Gametocytocidal Compounds (AID 743244); also: potency is read from the fitted curve at half-maximal effect; conditions: P. falciparum 3D7 stage III-V gametocytes, alamarBlue, 72 h; max response: stronger effect = lower value
[2] = qHTS of pediatric cancer cell lines to identify multiple opportunities for drug repurposing: Primary screen for TC32 cells (AID 1347089); conditions: TC32 Ewing sarcoma viability, CellTiter-Glo luminescence, 48 h; at 45.8 µM (top of the series) unless noted; also: % is scaled to controls: 0 for no effect and ±100 for the full control effect; nearly all actives have a fitted effect of over 60% in size
[3] = qHTS of pediatric cancer cell lines to identify multiple opportunities for drug repurposing: Primary screen for DAOY cells (AID 1347090);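 also: plate controls were DMSO for no effect and bortezomib for full effect; nearly all actives have a fitted effect of over 55% in size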
[4] = qHTS of pediatric cancer cell lines to identify multiple opportunities for drug repurposing: Primary screen for SJ-GBM2 cells (AID 1347091); conditions: SJ-GBM2 viability, CellTiter-Glo luminescence, 48 h; at 46 µM (top of the series) unless noted;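 also: plate controls were DMSO neutral control for no effect and bortezomib for full effect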
[5] = qHTS of pediatric cancer cell lines to identify multiple opportunities for drug repurposing: Primary screen for A673 cells (AID 1347092); conditions: A673 Ewing sarcoma viability, CellTiter-Glo ATP luminescence, 48 h; at 46 µM (top of the series) unless noted; also: % is scaled to controls: 0 for no effect and ±100 for the full control effect; nearly all actives have a fitted effect of over 45% in size
[6] = qHTS of pediatric cancer cell lines to identify multiple opportunities for drug repurposing: Primary screen for SK-N-MC cells (AID 1347093); conditions: SK-N-MC viability, CellTiter-Glo luminescence, 48 h; at 46 µM (top of the series) unless noted;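 also: plate controls were DMSO neutral control for no effect and bortezomib for full effect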
[7] = qHTS of pediatric cancer cell lines to identify multiple opportunities for drug repurposing: Primary screen for BT-37 cells (AID 1347094); conditions: BT-37 viability, CellTiter-Glo luminescence, 48 h; at 57.3 µM (top of the series) unless noted;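 also: plate controls were DMSO for no effect and bortezomib for full effect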
[8] = qHTS of pediatric cancer cell lines to identify multiple opportunities for drug repurposing: Primary screen for NB-EBc1 cells (AID 1347095); conditions: NB-EBc1 neuroblastoma viability, CellTiter-Glo luminescence, 48 h; at 46 µM (top of the series) unless noted;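 also: plate controls were DMSO neutral control for no effect and bortezomib for full effect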
[9] = qHTS of pediatric cancer cell lines to identify multiple opportunities for drug repurposing: Primary screen for U-2 OS cells (AID 1347096); conditions: U-2 OS viability, CellTiter-Glo luminescence, 48 h; at 46 µM (top of the series) unless noted;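 also: plate controls were DMSO wells for no effect and bortezomib positive control wells for full effect; nearly all actives have a fitted effect of over 50% in size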
[10] = qHTS of pediatric cancer cell lines to identify multiple opportunities for drug repurposing: Primary screen for Saos-2 cells (AID 1347097); conditions: Saos-2 viability, CellTiter-Glo ATP luminescence, 48 h; at 46 µM (top of the series) unless noted; also: % is scaled to controls: 0 for no effect and ±100 for the full control effect; nearly all actives have a fitted effect of over 40% in size
[11] = qHTS of pediatric cancer cell lines to identify multiple opportunities for drug repurposing: Primary screen for NB1643 cells (AID 1347099); conditions: NB1643 neuroblastoma viability, CellTiter-Glo luminescence, 48 h; at 46 µM (top of the series) unless noted;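 also: plate controls were DMSO neutral control for no effect and bortezomib positive control for full effect; nearly all actives have a fitted effect of over 50% in size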
[12] = qHTS of pediatric cancer cell lines to identify multiple opportunities for drug repurposing: Primary screen for LAN-5 cells (AID 1347100); conditions: LAN-5 neuroblastoma viability, CellTiter-Glo luminescence, 48 h; at 46 µM (top of the series) unless noted;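 also: plate controls were DMSO neutral control for no effect and bortezomib positive control for full effect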
[13] = qHTS of pediatric cancer cell lines to identify multiple opportunities for drug repurposing: Primary screen for BT-12 cells (AID 1347101);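 also: plate controls were DMSO for no effect and bortezomib positive control for full effect; nearly all actives have a fitted effect of over 25% in size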
[14] = qHTS of pediatric cancer cell lines to identify multiple opportunities for drug repurposing: Primary screen for Rh18 cells (AID 1347102); conditions: Rh18 rhabdomyosarcoma viability, CellTiter-Glo luminescence, 48 h; at 46 µM (top of the series) unless noted; also: % is scaled to controls: 0 for no effect and ±100 for the full control effect; nearly all actives have a fitted effect of over 65% in size
[15] = qHTS of pediatric cancer cell lines to identify multiple opportunities for drug repurposing: Primary screen for OHS-50 cells (AID 1347103);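 also: plate controls were DMSO neutral control for no effect and bortezomib positive control for full effect; nearly all actives have a fitted effect of over 40% in size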
[16] = qHTS of pediatric cancer cell lines to identify multiple opportunities for drug repurposing: Primary screen for RD cells (AID 1347104); conditions: RD rhabdomyosarcoma viability, CellTiter-Glo luminescence, 48 h; at 46 µM (top of the series) unless noted;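 also: plate controls were DMSO for no effect and bortezomib for full effect; nearly all actives have a fitted effect of over 55% in size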
[17] = qHTS of pediatric cancer cell lines to identify multiple opportunities for drug repurposing: Primary screen for MG 63 (6-TG R) cells (AID 1347105); conditions: MG 63 (6-TG R) viability, CellTiter-Glo, 48 h; at 46 µM (top of the series) unless noted; also: % is scaled to controls: 0 for no effect and ±100 for the full control effect; nearly all actives have a fitted effect of over 50% in size
[18] = qHTS of pediatric cancer cell lines to identify multiple opportunities for drug repurposing: Primary screen for control Hh wild type fibroblast cells (AID 1347106); conditions: Hh wild-type fibroblast viability, CellTiter-Glo luminescence, 48 h; at 46 µM (top of the series) unless noted;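 also: % is scaled to controls: 0 for no effect and ±100 for the full control effect; a drop in luminescence marks cytotoxicity and a rise apparent proliferation; nearly all actives have a fitted effect of over 55% in size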
[19] = qHTS of pediatric cancer cell lines to identify multiple opportunities for drug repurposing: Primary screen for Rh30 cells (AID 1347107); conditions: Rh30 rhabdomyosarcoma viability, CellTiter-Glo luminescence, 48 h; at 46 µM (top of the series) unless noted; also: % is scaled to controls: 0 for no effect and ±100 for the full control effect; nearly all actives have a fitted effect of over 75% in size
[20] = qHTS of pediatric cancer cell lines to identify multiple opportunities for drug repurposing: Primary screen for Rh41 cells (AID 1347108); conditions: Rh41 rhabdomyosarcoma viability, CellTiter-Glo luminescence, 48 h; at 46 µM (top of the series) unless noted;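 also: luminescence drop marks cytotoxic hits; nearly all actives have a fitted effect of over 70% in size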
[21] = qHTS to identify inhibitors of the type 1 interferon - major histocompatibility complex class I in skeletal muscle: primary screen against the NCATS Pharmaceutical Collection (AID 1347407); conditions: human skeletal muscle cells, IFN-b-induced MHC-I HiBiT luminescence, 24 h; at 45.9 µM (top of the series) unless noted;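 also: luminescence of HiBiT knocked into endogenous HLA-B as interferon-induced MHC class I level; % is scaled to controls: 0 for no effect and ±100 for the full control effect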
Method in brief: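 Compounds […] were added to CRISPR-engineered HLA-B-HiBiT C25cl48 human myoblasts with 4.0 ng/ml IFN-beta. After 24 hrs at 37 C, cells were lysed and HiBiT luminescence measured.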

Chains of the proteins cited; added tags and fusions are not shown. Lines headed by an entry give the natural chain unless they say otherwise; changes in a name come on top.
UniProt O15297: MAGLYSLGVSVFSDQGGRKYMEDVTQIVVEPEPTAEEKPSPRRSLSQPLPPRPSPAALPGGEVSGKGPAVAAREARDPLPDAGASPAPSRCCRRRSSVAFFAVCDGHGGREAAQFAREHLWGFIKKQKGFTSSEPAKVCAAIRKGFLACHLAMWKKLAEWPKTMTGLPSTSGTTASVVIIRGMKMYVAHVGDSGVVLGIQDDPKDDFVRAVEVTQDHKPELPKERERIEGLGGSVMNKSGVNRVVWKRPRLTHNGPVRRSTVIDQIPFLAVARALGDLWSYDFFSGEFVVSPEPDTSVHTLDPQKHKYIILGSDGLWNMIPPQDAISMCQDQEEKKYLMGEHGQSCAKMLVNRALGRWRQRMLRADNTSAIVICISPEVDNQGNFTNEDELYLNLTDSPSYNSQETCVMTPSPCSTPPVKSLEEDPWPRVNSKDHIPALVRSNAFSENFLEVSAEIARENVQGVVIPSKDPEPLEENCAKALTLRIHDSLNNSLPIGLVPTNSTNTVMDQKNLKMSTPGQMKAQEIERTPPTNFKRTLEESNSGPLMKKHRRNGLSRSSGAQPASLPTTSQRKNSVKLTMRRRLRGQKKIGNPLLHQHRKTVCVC
UniProt Q99828: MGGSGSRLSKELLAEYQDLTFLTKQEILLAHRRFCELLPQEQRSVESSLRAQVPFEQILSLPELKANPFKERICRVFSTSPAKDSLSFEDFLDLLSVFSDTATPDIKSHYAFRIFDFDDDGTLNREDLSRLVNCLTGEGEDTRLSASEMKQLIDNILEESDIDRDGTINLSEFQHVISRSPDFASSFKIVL

[22] = biological target: Protein phosphatase 1D (Homo sapiens) (UniProt O15297); assay: RapidFire Mass Spectrometry qHTS Assay for Modulators of WT P53-Induced Phosphatase 1 (WIP1) (AID 1347424); conditions: WIP1 dephosphorylation of phosphopeptide, RapidFire MS; at 63 µM (top of the series) unless noted;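 also: amount of dephosphorylated VEPPL-S-QETFS peptide product formed by WIP1; plate controls were DMSO wells for no effect and GSK830371 inhibitor control at 10 µM for full effect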
Method in brief: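 10 nM WIP1 + cpd, 1 h RT; + 2 uM VEPPL-pS-QETFS, 5 min RT; stop 0.5% formic acid; labelled product standard 1 uM; RapidFire MS. Buffer 50 mM Tris pH 7.5, 30 mM MgCl2, 1 mM TCEP.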

[23] = biological target: Protein phosphatase 1D (Homo sapiens) (UniProt O15297); assay: Rhodamine-PBP qHTS Assay for Modulators of WT P53-Induced Phosphatase 1 (WIP1) (AID 1347425); conditions: recombinant WIP1, Rhodamine-PBP phosphate fluorescence, real-time; at 57.5 µM (top of the series) unless noted; also: % of control where 0% means no effect
Method in brief: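 Steps: enzyme with Rh-PBP sensor and compounds, room-temperature incubation of 1 hr, baseline read, addition of VEPPL-pS-QETFS (10 uM final), kinetic fluorescence reads at 525/598 nm. Activity equals final minus baseline signal.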

[24] = biological target: Calcium and integrin-binding protein 1 (Homo sapiens) (UniProt Q99828); assay: Primary qHTS for Identification of Calcium Integrin Binding Protein 1 (CIB1) Competitor (AID 1508620); conditions: CIB1-GST / FITC-alphaIIb peptide fluorescence polarization; at 114 µM (top of the series) unless noted;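 also: GST tagged CIB1 binding a fluorescein labelled alphaIIb integrin peptide tracer; top concentration of the series differs between compounds; % is scaled to controls: 0 for no effect and ±100 for the full control effect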
[25] = A High-Content qHTS Against Drug Library for the Identification of Small Molecules that Inhibit DYT1 Early Onset Primary Dystonia-Associated Cell Pathology (AID 1645839; calls by dose curve)
Method in brief: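 In this high-content image screen, delE TorsinA mislocalization in inducible Flp-In 293 cells is scored as %pathology, with cell count serving as the counterscreen. Compound exposure lasts 48 h under tetracycline induction in reduced-serum medium.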

CN(C(=O)Cc1ccc(Cl)c(Cl)c1)[C@H]1CC[C@@]2(CCCO2)C[C@@H]1N1CCCC1
inactive: activity change, negative = cytotoxic [2] 3.7% | Potency [3] | activity change, negative = cytotoxic [4] -9.06% | activity change, negative = cytotoxic [5] -7.19% | activity change, negative = cytotoxic [6] -22.1% | activity change, negative = cytotoxic [7] -0.586% | activity change, negative = cytotoxic [8] -1.11% | activity change, negative = cytotoxic [9] -2.44% | activity change, negative = cytotoxic [10] -22.4% | activity change, negative = cytotoxic [11] 8.96% | activity change, negative = cytotoxic [12] 4.44% | Potency [13] | activity change, negative = cytotoxic [14] 2.64% | Potency [15] | activity change, negative = cytotoxic [16] -9.67% | activity change, negative = cytotoxic [17] -19.4% | activity change, negative = cytotoxic [18] -4.97% | activity change, negative = cytotoxic [19] 18.4% | activity change, negative = cytotoxic [20] 13.7% | activity change, negative = inhibition [21] 0.79% | activity change, negative = inhibition [22] 1.75% | activity change, negative = inhibition [23] 12.7% | activity change, negative = inhibition [24] 0.329% | Potency [25]
active: Potency [1] 22.4 µM

Reference: PubChem BioAssay (NCATS)
